Laboratory results from patent US5827737A, “In vitro activation of cytotoxic T cells” (The Scripps Research Institute, priority 1996, dated 1998).

Experiments:
[1] = test system: murine Class I molecules expressed on Drosophila cells; test: 37° C. thermostability of murine Class I on Drosophila cells grown in Excell 400; assay type: cell-based; conditions: human β2 added to cells in Excell 400 medium
[2] = test system: murine Class I heavy chains; test: Relative thermostability in cell lysates by origin of β2 microglobulin and peptide length

human β2 microglobulin: human β2 microglobulin
time for which all three murine Class I molecules are stable at 37° C. [1]: at least three | increase in temperature of stability of murine heavy chains versus complex with murine β2 [2]: 6-8 degrees
